According to patent US12410148B2, “Antibody drug conjugates” (Pharma Mar, S.A., priority 2013, dated 2025):

Legend:
[1] = test system: HCC-1954, SK-BR-3, MDA-MB-231 and MCF-7 cells; experiment: In vitro cytotoxicity, whole breast cancer cell panel; conditions: for cytotoxicity (words): 10 μg/mL
From the text: All tumor cell lines used in this study were obtained from the American Type Culture Collection (ATCC), unless otherwise indicated; BT-474 (ATCC HTB-20, Breast Ductal Carcinoma), SK-BR-3 (ATCC HTB-30, Breast Adenocarcinoma) and HCC-1954 (ATCC CRL-2338, Breast Ductal Carcinoma), all HER2+; MDA-MB-231 (ATCC HTB-26, Breast Adenocarcinoma) and MCF-7 (ATCC HTB-22 Breast Adenocarcinoma, pleural effusion), all HER2-; SK-OV-3 (ATCC HTB-77, Ovary Adenocarcinoma), HER2+; NB-4 (Acute Promyelocytic Leukemia, APL, CD13+, M. Lanotte et al. (1991) NB4, a maturation inducible cell line with t(15;17) marker isolated from a human acute promyelocytic leukemia (M3). Blood 77, 1080-1086), (CD13+) and U937 (ATCC CRL-1 593.2, Histiocytic Lymphoma, CD13+ and CD4+); Raji (ATCC CCL-86, Burkitt's Lymphoma) (CD13−, CD20+, CD5−, and CD4−); RPMI-8226 (ATCC CRM-CCL-155, Multiple Myeloma) (CD13−, CD20−, CD5− and CD4−); Karpas-299 (DSMZ ACC-31, Non-Hodgkin's Lymphoma) (CD20−, CD5+, and CD4+); MOLT-4 (ATCC CRL-1 582, Acute Lymphoblastic Leukemia, CD5+). In addition, the two Raji cell (ATCC CCL-86, Burkitt's Lymphoma) clones used in this study Raji-clone #10 (high CD5 expression) and Raji-clone18 (null CD5 expression), were provided by Dr. Juan M. Zapata (Instituto de Investigaciones Biomedicas “Alberto Sols”, CSIC-UAM, Madrid, Spain). […]
(§1) For adherent cells: A colorimetric assay using sulforhodamine B (SRB) was adapted for quantitative measurement of cell growth and cytotoxicity, as described in V. Vichai and K. Kirtikara (2006) Sulforhodamine B colorimetric assay for cytotoxicity screening. […] For quantification, cells were washed twice with phosphate buffered saline (PBS), fixed for 15 min in 1% glutaraldehyde solution, rinsed twice with PBS, stained in 0.4% SRB-1% acetic acid solution for 30 min, rinsed several times with 1% acetic acid solution and air-dried. SRB was then extracted in 10 mM trizma base solution and the optical density measured at 490 nm in a microplate spectrophotometer. Cell survival was expressed as percentage of control, untreated cell survival. […]

[2] = test system: BT-474, HCC-1954, SK-BR-3, MDA-MB-231, MCF-7 and SK-OV-3 cells; experiment: In vitro cytotoxicity, whole cell panel of Bioactivity Example 1; conditions: 5.0E01 to 2.6E-03 μg/mL
From the text: All tumor cell lines used in this study were obtained from the American Type Culture Collection (ATCC), unless otherwise indicated; BT-474 (ATCC HTB-20, Breast Ductal Carcinoma), SK-BR-3 (ATCC HTB-30, Breast Adenocarcinoma) and HCC-1954 (ATCC CRL-2338, Breast Ductal Carcinoma), all HER2+; MDA-MB-231 (ATCC HTB-26, Breast Adenocarcinoma) and MCF-7 (ATCC HTB-22 Breast Adenocarcinoma, pleural effusion), all HER2-; SK-OV-3 (ATCC HTB-77, Ovary Adenocarcinoma), HER2+; NB-4 (Acute Promyelocytic Leukemia, APL, CD13+, M. Lanotte et al. (1991) NB4, a maturation inducible cell line with t(15;17) marker isolated from a human acute promyelocytic leukemia (M3). […]
as §1

Q: “Trastuzumab: monoclonal antibody that interferes with the HER2/neu receptor; purchased from Roche [reference compound]” was tested. Which “cytotoxicity (words)” value [1] did it give?
A: no cytotoxicity

Q: What about the “cytotoxicity (words)” value ([1]; listed as trastuzumab) of the same substance?
A: no cytotoxicity activity; also recorded: no cytotoxic activity

Q: What about the “cytotoxic activity” value ([1]; 50 μg/mL) of the same substance?
A: no significant cytotoxic activity

Q: And the “cytotoxicity in DR curves” value [2]?
A: completely inactive

Entries after “also recorded” stand apart in the source; their conditions may differ.
